Experimental data: patent US8034936B2, “Spirocyclic cyclohexane compounds useful to treat substance dependency” (Gruenenthal GmbH, priority 2005, dated 2011)
Like-named read-outs stand apart in the source and are kept apart here.

Protein sequences, listed by entry. Tags and fused reporters are not part of them. Lines headed by an entry give the natural chain unless they say otherwise; changes in a name come on top.
UniProt P41146: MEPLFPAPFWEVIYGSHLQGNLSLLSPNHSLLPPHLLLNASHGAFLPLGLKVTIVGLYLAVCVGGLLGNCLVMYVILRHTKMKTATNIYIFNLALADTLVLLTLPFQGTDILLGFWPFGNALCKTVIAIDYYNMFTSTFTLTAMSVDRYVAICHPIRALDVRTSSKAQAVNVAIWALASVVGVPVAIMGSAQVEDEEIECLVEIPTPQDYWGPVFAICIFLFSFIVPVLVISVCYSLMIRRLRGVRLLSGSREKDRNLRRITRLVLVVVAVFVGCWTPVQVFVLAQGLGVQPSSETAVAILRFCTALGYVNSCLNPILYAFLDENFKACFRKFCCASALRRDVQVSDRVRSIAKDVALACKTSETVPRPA
UniProt P35372, whole entry, looked up: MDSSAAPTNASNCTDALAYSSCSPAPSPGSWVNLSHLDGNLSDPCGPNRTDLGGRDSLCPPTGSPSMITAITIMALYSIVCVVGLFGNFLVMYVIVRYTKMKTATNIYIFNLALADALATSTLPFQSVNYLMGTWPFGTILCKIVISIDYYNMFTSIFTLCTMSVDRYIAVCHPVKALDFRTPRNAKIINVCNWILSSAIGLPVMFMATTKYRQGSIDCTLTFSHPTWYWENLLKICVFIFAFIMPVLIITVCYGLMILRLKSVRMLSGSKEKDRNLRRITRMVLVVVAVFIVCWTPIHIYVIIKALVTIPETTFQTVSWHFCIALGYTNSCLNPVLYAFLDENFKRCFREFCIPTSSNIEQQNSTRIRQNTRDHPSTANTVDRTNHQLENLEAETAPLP

Assays:
ORL1 receptor = ORL1 receptor (Homo sapiens, UniProt P41146); experiment: ORL1 receptor binding assay with 3H-nociceptin/orphanin FQ, membranes of recombinant CHO-ORL1 cells
human μ-opiate receptor = human μ-opiate receptor (Homo sapiens, UniProt P35372); experiment: μ-opiate receptor binding, [3H]-naloxone displacement, CHO-K1 membrane preparation
[1] = read-out: ORL1 human Ki, No. 1-49

Compound	ORL1/μ Ratio calculated as Ki(μ)/Ki(ORL1) (ORL1 receptor; No. 1-49)	Ki (ORL1 receptor; [1]) [nM]	Ki (human μ-opiate receptor; read-out: μ Ki, No. 1-49) [nM]	ORL1/μ ratio (ORL1 receptor; No. 50-145)	Ki (ORL1 receptor; read-out: ORL1, Ki, No. 50-145) [nM]	Ki (human μ-opiate receptor; read-out: μ, Ki, No. 50-145) [nM]	ORL-1 [1 μM], % inhibition (ORL1 receptor) [%]	μ-opiate-receptor [1 μM], % inhibition (human μ-opiate receptor) [%]
COc1ccc2[nH]c3c(c2c1)CCOC31CCC(c2ccccc2)(N(C)C)CC1 (stereo not drawn)	0.34	6	2					
CN(C)C1(c2ccccc2)CCC2(CC1)c1[nH]c3ccccc3c1CCN2C(=O)c1c(F)c(F)c(F)c(F)c1F (stereo not drawn)	0.32	130	41					
CN(C)C1(c2ccccc2)CCC2(CC1)c1[nH]c3ccccc3c1CCN2C(=O)c1cccs1 (stereo not drawn)				1.09	32	35		
CN(C)C1(c2ccccc2)CCC2(CC1)c1[nH]c3ccccc3c1CCN2C(=O)c1cc(F)ccc1F (stereo not drawn)				0.42	4.5	1.9		
CN(C)C1(c2ccccc2)CCC2(CC1)c1[nH]c3ccccc3c1CCN2C(=O)c1c(F)cccc1F (stereo not drawn)				1.50	10	15		
CN(C)C1(c2ccccc2)CCC2(CC1)c1[nH]c3ccccc3c1CCN2C(=O)c1cc(F)cc(C(F)(F)F)c1 (stereo not drawn)				0.41	37	15		
CN(C)C1(c2ccccc2)CCC2(CC1)c1[nH]c3ccccc3c1CCN2C(=O)c1cccc(F)c1 (stereo not drawn)				1.50	2.8	4.2		
CN(C)C1(c2ccccc2)CCC2(CC1)c1[nH]c3ccccc3c1CCN2C(=O)c1ccc(F)c(C(F)(F)F)c1 (stereo not drawn)				1.00	36	36		
COC(=O)CCC(=O)N1CCc2c([nH]c3ccccc23)C12CCC(c1cccc(F)c1)(N(C)C)CC2 (stereo not drawn)				0.86	29	25		
CN(C)C1(c2ccccc2)CCC2(CC1)c1[nH]c3ccccc3c1CCN2C(=O)c1ccc(C(F)(F)F)cc1F (stereo not drawn)				0.48	65	31		
CN(C)C1(c2ccccc2)CCC2(CC1)c1[nH]c3ccccc3c1CCN2C(=O)c1ccc(C(F)(F)F)cc1 (stereo not drawn)				2.18	7.8	17		
CCCCC(=O)N1CCc2c([nH]c3ccccc23)C12CCC(Cc1ccccc1)(N(C)C)CC2 (stereo not drawn)				0.63	4.3	2.7		
Cc1cccc(C(=O)N2CCc3c([nH]c4ccccc34)C23CCC(c2cccc(F)c2)(N(C)C)CC3)c1 (stereo not drawn)				0.91	11	10		
Cc1ccc2[nH]c3c(c2c1)CCOC31CCC(c2ccccc2)(N(C)C)CC1 (stereo not drawn)	0.60	4.5	2.7					
c1ccc(C2(N3CCCC3)CCC3(CC2)OCCc2c3[nH]c3ccccc23)cc1 (stereo not drawn)	0.31	3.5	1.1					
CN(C)C1(c2ccccc2)CCC2(CC1)c1[nH]c3ccccc3c1CCN2C(=O)c1ccccc1F (stereo not drawn)				0.47	18	8.4		
CN(C)C1(c2cccc(F)c2)CCC2(CC1)c1[nH]c3ccccc3c1CCN2C(=O)c1ccc(F)cc1 (stereo not drawn)				2.83	4.6	13		
CN(C)C1(c2ccccc2)CCC2(CC1)c1[nH]c3ccccc3c1CCN2C(=O)C1CCCCC1 (stereo not drawn)				2.40	2	4.8		
CCCCC(CC)C(=O)N1CCc2c([nH]c3ccccc23)C12CCC(c1ccccc1)(N(C)C)CC2 (stereo not drawn)				1.04	47	49		
CN(C)C1(c2cccc(F)c2)CCC2(CC1)c1[nH]c3ccccc3c1CCN2C(=O)CC(C)(C)C (stereo not drawn)				5.00	2.6	13		
CCCCC(=O)N1CCc2c([nH]c3ccccc23)C12CCC(c1cccc(F)c1)(N(C)C)CC2 (stereo not drawn)				3.42	3.8	13		

Compound	ORL1/μ Ratio calculated as Ki(μ)/Ki(ORL1) (ORL1 receptor; No. 1-49)	Ki (ORL1 receptor; [1]) [nM]	Ki (human μ-opiate receptor; read-out: μ Ki, No. 1-49) [nM]	ORL1/μ ratio (ORL1 receptor; No. 50-145)	Ki (ORL1 receptor; read-out: ORL1, Ki, No. 50-145) [nM]	Ki (human μ-opiate receptor; read-out: μ, Ki, No. 50-145) [nM]	ORL-1 [1 μM], % inhibition (ORL1 receptor) [%]	μ-opiate-receptor [1 μM], % inhibition (human μ-opiate receptor) [%]
Cc1ccccc1C(=O)N1CCc2c([nH]c3ccccc23)C12CCC(c1ccccc1)(N(C)C)CC2 (stereo not drawn)				0.65	31	20		
CN(C)C1(c2cccc(F)c2)CCC2(CC1)c1[nH]c3ccccc3c1CCN2C(=O)c1ccc(Cl)c(Cl)c1 (stereo not drawn)				1.37	19	26		
CN(C)C1(CCc2ccccc2)CCC2(CC1)c1[nH]c3ccccc3c1CCN2C(=O)c1c(F)c(F)c(F)c(F)c1F (stereo not drawn)							32	99
CN(C)C1(c2ccccc2)CCC2(CC1)OC1CCCCC1c1c2[nH]c2ccccc12 (stereo not drawn)	0.62	110	70					
CN(C)C1(Cc2ccccc2)CCC2(CC1)c1[nH]c3ccccc3c1CCN2C(=O)c1ccccc1C(F)(F)F (stereo not drawn)				0.95	19	18		
CN(C)C1(c2cccc(F)c2)CCC2(CC1)c1[nH]c3ccccc3c1CCN2C(=O)c1ccc(Cl)cc1Cl (stereo not drawn)				0.86	22	19		
CN(C)C1(c2cccc(F)c2)CCC2(CC1)c1[nH]c3ccccc3c1CCN2C(=O)c1cc(F)cc(C(F)(F)F)c1 (stereo not drawn)				1.00	3.3	3.3		
CN(C)C1(Cc2ccccc2)CCC2(CC1)c1[nH]c3ccccc3c1CCN2C(=O)C1CCCCC1 (stereo not drawn)				1.31	13	17		
CN(C)C1(c2ccccc2)CCC2(CC1)c1[nH]c3ccccc3c1CC[S+]2[O-] (stereo not drawn)	0.94	60	60					
CC(=O)N1CCc2c([nH]c3ccccc23)C12CCC(c1ccc(F)cc1)(N(C)C)CC2 (stereo not drawn)	0.55	6	3.3					
COc1ccccc1C(=O)N1CCc2c([nH]c3ccccc23)C12CCC(c1ccccc1)(N(C)C)CC2 (stereo not drawn)				0.43	46	20		
CN(C)C1(c2ccccc2)CCC2(CC1)OCCc1c2[nH]c2cc(Cl)cc(Cl)c12 (stereo not drawn)							32	97
Cc1ccccc1C(=O)N1CCc2c([nH]c3ccccc23)C12CCC(c1cccc(F)c1)(N(C)C)CC2 (stereo not drawn)				1.02	9.2	9.4		
CN(C)C1(Cc2ccccc2)CCC2(CC1)c1[nH]c3ccccc3c1CCN2C(=O)C1CCC1 (stereo not drawn)				1.17	41	48		
CN(C)C1(CCc2ccccc2)CCC2(CC1)c1[nH]c3ccccc3c1CCN2C(=O)c1cc(F)c(F)c(F)c1F (stereo not drawn)							31	91
CN(C)C1(c2cccc(F)c2)CCC2(CC1)c1[nH]c3ccccc3c1CCN2C(=O)c1ccc(F)cc1F (stereo not drawn)				1.06	16	17		
CN(C)C1(c2cccc(F)c2)CCC2(CC1)c1[nH]c3ccccc3c1CCN2C(=O)c1cc(C(F)(F)F)ccc1F (stereo not drawn)				0.80	110	88		
CN(C)C1(c2cccc(F)c2)CCC2(CC1)c1[nH]c3ccccc3c1CCN2C(=O)c1cccc(F)c1F (stereo not drawn)				1.79	1.4	2.5		
COc1ccc(C(=O)N2CCc3c([nH]c4ccccc34)C23CCC(c2cccc(F)c2)(N(C)C)CC3)cc1 (stereo not drawn)				2.29	38	87		
CCCC(=O)N1CCc2c([nH]c3ccccc23)C12CCC(c1cccc(F)c1)(N(C)C)CC2 (stereo not drawn)				2.00	1.4	2.8		
Cc1ccc2[nH]c3c(c2c1)CCNC31CCC(c2ccccc2)(N(C)C)CC1 (stereo not drawn)	0.47	30	20					
